Measurements from US10213415B2, “Compounds as opioid receptor modulators” (JANSSEN PHARMACEUTICA NV, priority 2004, dated 2019).

Amino acid sequences for entries named in this document (tags omitted).
UniProt P35372, whole entry: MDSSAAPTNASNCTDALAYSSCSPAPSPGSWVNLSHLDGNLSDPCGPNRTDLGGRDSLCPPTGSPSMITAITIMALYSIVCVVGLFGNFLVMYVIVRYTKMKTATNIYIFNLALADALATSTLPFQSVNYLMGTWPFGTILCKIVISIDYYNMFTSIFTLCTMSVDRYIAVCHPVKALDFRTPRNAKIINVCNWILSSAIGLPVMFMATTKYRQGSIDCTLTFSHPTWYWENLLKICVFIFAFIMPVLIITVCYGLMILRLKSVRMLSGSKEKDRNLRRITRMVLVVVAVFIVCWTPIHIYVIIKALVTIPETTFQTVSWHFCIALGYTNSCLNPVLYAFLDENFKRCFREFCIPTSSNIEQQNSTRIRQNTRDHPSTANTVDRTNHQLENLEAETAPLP
UniProt P33533, whole entry: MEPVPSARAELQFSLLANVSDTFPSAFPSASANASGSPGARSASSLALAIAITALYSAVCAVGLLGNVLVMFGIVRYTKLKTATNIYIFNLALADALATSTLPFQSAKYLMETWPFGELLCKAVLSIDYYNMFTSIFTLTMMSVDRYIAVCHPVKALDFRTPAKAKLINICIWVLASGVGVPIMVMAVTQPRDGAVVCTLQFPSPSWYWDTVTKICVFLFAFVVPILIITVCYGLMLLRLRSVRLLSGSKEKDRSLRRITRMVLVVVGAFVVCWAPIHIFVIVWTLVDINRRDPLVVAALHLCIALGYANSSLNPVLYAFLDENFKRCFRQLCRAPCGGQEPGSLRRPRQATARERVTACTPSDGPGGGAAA
UniProt P33535, whole entry: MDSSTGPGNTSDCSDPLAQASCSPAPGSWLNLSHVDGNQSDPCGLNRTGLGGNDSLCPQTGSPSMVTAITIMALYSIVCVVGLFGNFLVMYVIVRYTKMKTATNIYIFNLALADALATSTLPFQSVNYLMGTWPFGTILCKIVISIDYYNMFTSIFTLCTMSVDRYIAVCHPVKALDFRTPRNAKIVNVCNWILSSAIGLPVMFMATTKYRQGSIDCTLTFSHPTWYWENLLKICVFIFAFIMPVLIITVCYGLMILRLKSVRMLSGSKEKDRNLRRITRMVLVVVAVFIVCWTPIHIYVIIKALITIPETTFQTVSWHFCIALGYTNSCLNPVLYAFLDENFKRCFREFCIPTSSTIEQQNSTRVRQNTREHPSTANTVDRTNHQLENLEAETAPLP
UniProt P32300, whole entry: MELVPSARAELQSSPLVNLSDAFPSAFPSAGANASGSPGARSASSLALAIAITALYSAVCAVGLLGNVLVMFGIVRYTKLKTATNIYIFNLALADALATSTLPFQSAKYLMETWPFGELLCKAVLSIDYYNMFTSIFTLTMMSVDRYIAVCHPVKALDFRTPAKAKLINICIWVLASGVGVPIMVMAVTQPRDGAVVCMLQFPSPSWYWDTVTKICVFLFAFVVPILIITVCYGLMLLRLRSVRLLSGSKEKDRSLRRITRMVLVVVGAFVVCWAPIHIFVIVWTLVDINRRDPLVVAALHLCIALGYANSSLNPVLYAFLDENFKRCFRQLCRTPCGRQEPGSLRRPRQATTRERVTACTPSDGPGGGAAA

Assays:
human mu opioid receptor = human mu opioid receptor (Homo sapiens, UniProt P35372); experiment: Human Mu Opioid Receptor Binding Assay (CHO membranes, 3H-Damgo); conditions: read-out: hKi μ
delta opioid receptor [1] = biological target: T1, delta opioid receptor (Rattus norvegicus, UniProt P33533); experiment: Rat Brain Delta Opioid Receptor Binding Assay ([3H]DPDPE); conditions: read-out: r Ki δ, rat forebrain membranes, margin of error 10-20%
Method: Male, Wistar rats (150-250 g, VAF, Charles River, Kingston, N.Y.) are killed by cervical dislocation, and their brains removed and placed immediately in ice cold Tris HCl buffer (50 mM, pH 7.4). The forebrains are separated from the remainder of the brain by a coronal transection, beginning dorsally at the colliculi and passing ventrally through the midbrain-pontine junction. After dissection, the forebrains are homogenized in Tris buffer in a Teflon® glass homogenizer. The homogenate is diluted to a concentration of 1 g of forebrain tissue per 80 mL Tris and centrifuged at 39,000×g for 10 min. The pellet is resuspended in the same volume of Tris buffer containing 5 mM MgCl2 with several brief pulses from a Polytron homogenizer. This particulate preparation is used for the delta opioid binding assays. Following incubation with the delta selective peptide ligand ˜4 nM [^3H]DPDPE at 25° C. for 2.5 h in a 96-well plate with total volume of 1 mL, the plate contents are filtered through Wallac filtermat B sheets on a Tomtec 96-well harvester. The filters are rinsed three times with 2 mL of 10 mM HEPES (pH 7.4), and dried in a microwave oven 2 min twice. To each sample area 2×50 μL of Betaplate Scint scintillation fluid (LKB) is added and analyzed on a LKB (Wallac) 1205 BetaPlate liquid scintillation counter.
The data are used to calculate either the % inhibition compared to control binding (when only a single concentration of test compound is evaluated) or a Ki value (when a range of concentrations is tested). % inhibition is calculated as: [(total dpm−test compound dpm)/(total dpm−nonspecific dpm)]*100. Kd and Ki values were calculated using GraphPad PRISM data analysis program.

mu opioid receptor = mu opioid receptor (Rattus norvegicus, UniProt P33535); experiment: Rat Brain Mu Opioid Receptor Binding Assay (and Version 2a, [3H]DAMGO); conditions: read-out: r Ki μ, rat forebrain membranes, margin of error 10-20%
[2] = biological target: delta opioid receptor (NG108-15 cell membranes) (Mus musculus, UniProt P32300); experiment: Delta Opioid Receptor Functional Assay: [35S]GTPγS Binding in NG108-15 Cell Membranes, Version 2; conditions: for DOR GTP-binding Assay v2 (% I): % inhibition of agonist-stimulated GTPγS binding; for EC50: read-out: DOR GTP-binding Assay_v2_ EC50, [35S]GTPγS
Method: NG108-15 cell membranes were purchased from Applied Cell Sciences (Rockville, Md.). 8 mg/ml of membrane protein suspended in 10 mM TRIS-HC pH 7.2, 2 mM EDTA, 10% sucrose.
Membranes were maintained at 4-8° C. A portion (1 ml) of membranes was added into 10 ml cold binding assay buffer. The assay buffer contained 50 mM Tris, pH 7.6, 5 mM MgCl2, 100 mM NaCl, 1 mM DTT and 1 mM EGTA. The membrane suspension was homogenized with a Polytron for 2 times and centrifuged at 3000 rpm for 10 min. The supernent was then centrifuged at 18,000 rpm for 20 min. The pellet was saved in a tube and 10 ml assay buffer was added into the tube. The pellet and buffer were mixed with a Polytron.
The pellet membranes (75 μg/ml) were preincubated with SPA (10 mg/ml) at 25° C. for 45 min in the assay buffer. The SPA (5 mg/ml) coupled with membranes (37.5 μg/ml) was then incubated with 0.1 nM [^35S] GTPγS in the same Tris buffer containing 100 μM GDP in total volume of 200 μl. Increasing concentrations of receptor agonists were used to stimulate [^35S] GTPγS binding. The basal binding was tested in the absent agonists and no specific binding was tested in the present 10 μM unlabeled GTPγS. The data were analyzed on a Top counter.
[formula] % Inhibition=(% stimulation by 1 μM SNC80−% stimulation by 1 μM SNC80 in presence of test compound)×100/(% Stimulation by 1 μM SNC80−100) % of Basal=(stimulate−non specific)*100/(basal−non specific). EC50 values were calculated using GraphPad Prism.

[3] = biological target: mu opioid receptor (CHO-hMOR cell membranes) (Homo sapiens, UniProt P35372); experiment: Mu Opioid Receptor Functional Assay: [35S]GTPγS Binding in CHO-hMOR Cell Membranes, Versions 1 and 2; conditions: for EC50: read-out: MOR GTP binding assay v2 EC50, version 2; for MOR GTP binding assay_v2 (% I): version 2, % inhibition of agonist-stimulated GTPγS binding
Method: CHO-hMOR cell membranes were purchased from Receptor Biology, Inc. (Baltimore, Md.). About 10 mg/ml of membrane protein was suspended in 10 mM TRIS-HCl pH 7.2, 2 mM EDTA, 10% sucrose, and the suspension kept on ice. One ml of membranes was added to 15 ml cold binding assay buffer containing 50 mM HEPES, pH 7.6, 5 mM MgCl2, 100 mM NaCl, 1 mM DTT and 1 mM EDTA. The membrane suspension was homogenized with a Polytron and centrifuged at 3,000 rpm for 10 min. The supernatant was then centrifuged at 18,000 rpm for 20 min. The pellet was resuspended in 10 ml assay buffer with a Polytron.
The membranes were preincubated with wheat germ agglutinin coated SPA beads (Amersham) at 25° C. for 45 min in the assay buffer. The SPA bead (5 mg/ml) coupled membranes (10 μg/ml) were then incubated with 0.5 nM [^35S]GTPγS in the assay buffer. […] A range of concentrations of receptor agonists was used to stimulate [^35S]GTPγS binding. Both basal and non-specific binding was tested in the absence of agonist; non-specific binding determination included 10 μM unlabeled GTPγS.
Compounds were tested for function as antagonists by evaluating their potential to inhibit agonist-stimulated GTPγS binding. Radioactivity was quantified on a Packard TopCount. The following parameters were calculated:
[formula] % Inhibition=(% stimulation by 1 μM SNC80−% stimulation by 1 μM SNC80 in presence of test compound)×100/(% Stimulation by 1 μM SNC80−100)
EC50 values were calculated using GraphPad Prism.

delta opioid receptor [4] = biological target: T1, delta opioid receptor; experiment: Rat Brain Delta Opioid Receptor Binding Assay-Version 1a ([3H]naltrindole); conditions: read-out: r Ki δ Ver. 1a; rat forebrain membranes, 0.1 nM [3H]naltrindole; margin of error 10-20%
Method: Male, Wistar rats (150-250 g, VAF, Charles River, Kingston, N.Y.) were killed by cervical dislocation, and their brains removed and placed immediately in ice-cold Tris HCl buffer (50 mM, pH 7.4). The forebrains were separated from the remainder of the brain by a coronal transection, beginning dorsally at the colliculi and passing ventrally through the midbrain-pontine junction. After dissection, the forebrains were homogenized in Tris buffer in a Teflon®-glass homogenizer. The homogenate was diluted to a concentration of 1 g of forebrain tissue per 80 mL Tris and centrifuged at 39,000×g for 10 min. The pellet was resuspended in the same volume of Tris buffer containing 5 mM MgCl2 with several brief pulses from a Polytron homogenizer. This particulate preparation was used for the delta opioid binding assay. Following incubation with 0.1 nM of the delta selective ligand [^3H]naltrindole at 25° C. for 2.5 h in a 96-well plate with total 1 mL, the plate contents were filtered through Wallac filtermat B sheets on a Tomtec 96-well harvester. […] To each sample area, Betaplate Scint scintillation fluid (LKB) was added and the resulting radioactivity quantified on a LKB (Wallac) 1205 BetaPlate liquid scintillation counter. Kd and Ki values were calculated using the GraphPad PRISM data analysis program.

## Cc1cc(O)cc(C)c1C[C@H](N)C(=O)N(Cc1ccc2c(c1)OCO2)[C@@H](C)c1nc(-c2ccccc2)c[nH]1
Human mu opioid receptor
  Ki: 19 nM

## COc1ccc(CN(C(=O)[C@H](N)Cc2ccc(C(N)=O)cc2)[C@@H](C)c2nc(-c3ccccc3)c[nH]2)cc1C(=O)O
Delta opioid receptor [1]
  Ki: 1140 nM
Human mu opioid receptor
  Ki: 325 nM
Mu opioid receptor
  Ki: 754 nM

## Cc1cc(C(N)=O)cc(C)c1C[C@H](N)C(=O)N(Cc1cccc(C(=O)O)c1)[C@@H](C)c1nc(-c2cccc3ccccc23)c[nH]1
Delta opioid receptor [1]
  Ki: 0.54 nM
Human mu opioid receptor
  Ki: 5.1 nM
Mu opioid receptor
  Ki: 0.23 nM

## COc1ccc(CN(C(=O)[C@@H](N)Cc2ccc(C(N)=O)cc2)[C@H](C)c2nc(-c3ccccc3)c[nH]2)cc1C(=O)O
Delta opioid receptor [1]
  Ki: 6740 nM
Mu opioid receptor
  Ki: 3570 nM

## Cc1[nH]c([C@H](C)N(Cc2cccc(C(=O)O)c2)C(=O)[C@@H](N)Cc2ccc(C(N)=O)cc2)nc1-c1ccc(Cl)cc1
Delta opioid receptor [1]
  Ki: 0.14 nM
Mu opioid receptor
  Ki: 0.44 nM

## COc1ccc(CN(C(=O)[C@@H](N)Cc2c(C)cc(C(N)=O)cc2C)[C@@H](C)c2nc(-c3ccccc3)c[nH]2)cc1C(=O)Nc1ccccc1
[2]
  DOR GTP-binding Assay v2 (% I): 109.56%
  EC50: > 10000 nM
Delta opioid receptor [1]
  Ki: 0.76 nM
[3]
  EC50: 2.6 nM
  MOR GTP binding assay_v2 (% I): 76.20%
Mu opioid receptor
  Ki: 0.09 nM

## Cc1[nH]c([C@@H](C)N(Cc2cccc(C(=O)O)c2)C(=O)[C@@H](N)Cc2ccc(C(N)=O)cc2)nc1-c1ccc(Cl)cc1
Delta opioid receptor [1]
  Ki: 115 nM
Mu opioid receptor
  Ki: 47 nM

## COc1ccc(CN(C(=O)[C@H](N)Cc2ccc(C(N)=O)cc2)[C@H](C)c2nc(-c3ccccc3)c[nH]2)cc1C(=O)O
Delta opioid receptor [1]
  Ki: 2900 nM
Mu opioid receptor
  Ki: 1870 nM

## COC(=O)c1cccc(CN(Cc2nc(-c3ccccc3)c[nH]2)C(=O)[C@@H](N)Cc2c(C)cc(C(N)=O)cc2C)c1
Delta opioid receptor [1]
  Ki: 12.2 nM
Human mu opioid receptor
  Ki: 15.5 nM
Mu opioid receptor
  Ki: 0.27 nM

## COc1ccc(CN(C(=O)[C@@H](N)Cc2ccc(C(N)=O)cc2)[C@H](C)c2nc(-c3ccc(Cl)cc3)c(C)[nH]2)cc1C(=O)O
Delta opioid receptor [1]
  Ki: 1220 nM
Mu opioid receptor
  Ki: 357 nM

## Cc1cc(C(N)=O)cc(C)c1C[C@H](N)C(=O)N(Cc1cccc(C(=O)O)c1)Cc1nc(-c2ccccc2)c[nH]1
Delta opioid receptor [1]
  Ki: 15.6 nM
Human mu opioid receptor
  Ki: 1.93 nM
Mu opioid receptor
  Ki: 1.1 nM

## COC(=O)c1cccc(CN(C(=O)[C@@H](N)Cc2ccc(C(N)=O)cc2)[C@@H](C)c2nc(-c3ccccc3)c[nH]2)c1
Delta opioid receptor [4]
  Ki: 6.24 nM
[2]
  DOR GTP-binding Assay v2 (% I): 21.18%
  EC50: 86 nM
Delta opioid receptor [1]
  Ki: 0.61 nM
[3]
  EC50: 48 nM
  MOR GTP binding assay_v2 (% I): 1.00%
Human mu opioid receptor
  Ki: 21.5 nM
Mu opioid receptor
  Ki: 0.37 nM

## COc1ccc(CN(C(=O)[C@@H](N)Cc2c(C)cc(C(N)=O)cc2C)[C@H](C)c2nc(-c3ccccc3)c[nH]2)cc1C(=O)O
Delta opioid receptor [1]
  Ki: 907 nM
Mu opioid receptor
  Ki: 185 nM

## CC(=O)c1ccc(-c2nc(CN(C(=O)[C@@H](N)Cc3c(C)cc(O)cc3C)C(C)C)[nH]c2C)cc1
Human mu opioid receptor
  Ki: 5.6 nM

## Cc1cc(C(N)=O)cc(C)c1C[C@H](N)C(=O)N(Cc1cccc(C(=O)O)c1)[C@H](C)c1nc(-c2ccc(Cl)cc2)c(C)[nH]1
Delta opioid receptor [1]
  Ki: 27.8 nM
Human mu opioid receptor
  Ki: 15.9 nM
Mu opioid receptor
  Ki: 0.35 nM

## COc1ccc(CN(C(=O)[C@@H](N)Cc2ccc(C(N)=O)cc2)[C@@H](C)c2nc(-c3ccc(Cl)cc3)c(C)[nH]2)cc1C(=O)O
[2]
  DOR GTP-binding Assay v2 (% I): 72.08%
  EC50: 3 nM
Delta opioid receptor [1]
  Ki: 0.47 nM
Mu opioid receptor
  Ki: 0.69 nM
